Laboratory results: PMC11310081, “Deep-learning-enabled antibiotic discovery through molecular de-extinction” (Nature Biomedical Engineering, 2024)

Legend:
[1] = system: HEK293T cells; settings: 24 h
Method: HEK293T cells were obtained from the American Type Culture Collection (CRL-3216). The cells were cultured in high-glucose Dulbecco’s modified Eagle’s medium supplemented with 1% penicillin and streptomycin (antibiotics) and 10% fetal bovine serum and grown at 37 °C in a humidified atmosphere containing 5% CO2.
One day before the experiment, an aliquot of 100 μl of the cells at 50,000 cells per ml was seeded into each well of the cell-treated 96-well plates used in the experiment (that is, 5,000 cells per well). […] After the incubation period, we performed the 3-(4,5-dimethylthiazol-2-yl)-2,5-diphenyltetrazolium bromide tetrazolium reduction assay (MTT assay)[53]. The MTT reagent was dissolved at 0.5 mg ml^−1 in medium without phenol red and was used to replace cell culture supernatants containing the peptides (100 μl per well), and the samples were incubated for 4 h at 37 °C in a humidified atmosphere containing 5% CO2 yielding the insoluble formazan salt. The resulting salts were then resuspended in hydrochloric acid (0.04 mol l^−1) in anhydrous isopropanol and quantified by spectrophotometric measurements of absorbance at 570 nm. All assays were done as three biological replicates.
Unless otherwise stated, all assays were performed in three independent biological replicates as indicated in each figure legend and Methods sections. The cytotoxic activities values were estimated using non-linear regression based on the range of concentrations screened and were shown as the values that cause lysis of 50% of the cells in the experiment. Two technical replicates were performed in the cytotoxicity assays within each of the three biological replicates.

[2] = system: 11 clinically relevant bacterial pathogens; type: cell-based
From the text: The following Gram-negative bacteria were used in our study: A. baumannii ATCC 19606, E. coli ATCC 11775, E. coli AIC221 (E. coli MG1655 phnE_2::FRT), E. coli AIC222 (E. coli MG1655 pmrA53 phnE_2::FRT (colistin resistant)), K. pneumoniae ATCC 13883, P. aeruginosa PAO1 and P. aeruginosa PA14. The following Gram-positive bacteria were also used in our study: S. aureus ATCC 12600, S. aureus ATCC BAA-1556 (methicillin-resistant strain), E. faecalis ATCC 700802 (vancomycin-resistant strain) and E. faecium ATCC 700221 (vancomycin-resistant strain). Bacteria were grown from frozen stocks and plated on Luria–Bertani (LB) or Pseudomonas isolation agar plates (P. aeruginosa strains) and incubated overnight at 37 °C. After the incubation period, a single colony was transferred to 5 ml of LB medium, and cultures were incubated overnight (16 h) at 37 °C. The following day, an inoculum was prepared by diluting the overnight cultures 1:100 in 5 ml of the respective media and incubating them at 37 °C until bacteria reached logarithmic phase (OD600 = 0.3–0.5).
The in vitro antimicrobial activity of the peptides was assessed by using the broth microdilution assay. […] Aqueous solutions of the peptides were added to the plate at concentrations ranging from 1 to 64 μmol l^−1. […] The optical density of the plates was measured at 600 nm using a spectrophotometer. All assays were done as three biological replicates.

CC[C@H](C)[C@H](NC(=O)[C@H](CC(N)=O)NC(=O)[C@H](CCCCN)NC(=O)[C@H](CCCNC(=N)N)NC(=O)[C@H](Cc1ccccc1)NC(=O)[C@@H](NC(=O)[C@H](CC(C)C)NC(=O)[C@H](CCCNC(=N)N)NC(=O)[C@H](CCCNC(=N)N)NC(=O)CNC(=O)[C@H](CCCNC(=N)N)NC(=O)[C@H](C)NC(=O)[C@H](CCCNC(=N)N)NC(=O)[C@@H](NC(=O)[C@H](CC(C)C)NC(=O)[C@H](CO)NC(=O)[C@H](Cc1ccc(O)cc1)NC(=O)[C@@H](NC(=O)[C@H](CCCNC(=N)N)NC(=O)[C@H](CS)NC(=O)[C@H](Cc1ccc(O)cc1)NC(=O)[C@@H](N)CC(C)C)[C@@H](C)CC)C(C)C)[C@@H](C)O)C(=O)N[C@@H](CO)C(=O)N[C@@H](CCCCN)C(=O)O [Hydrodamin-1]
CC50 [1]: > 128 µM | Active or Inactive ([2]; Supplementary Dataset 2, against the 11 pathogens tested): Active | MIC (lowest MIC value in the antimicrobial activity assays) ([2]; Supplementary Table 17, lowest MIC among the strains tested): 4 µM (≈ 11.9 µg/mL)

Values after ≈ are worked out from the molar mass of the structure shown.
